Measurements from US20220185818A1, “PYRROLOHETEROCYCLIC DERIVATIVE, PREPARATION METHOD THEREFOR, AND APPLICATION THEREOF IN MEDICINE” (Jiangsu Hengrui Medicine Co., Ltd., priority 2019, published 2022).
Where two headings read alike, the source gives them in different places.

Amino acid sequences for entries named in this document (tags omitted). Residues count along the entry.
UniProt P27361, whole entry: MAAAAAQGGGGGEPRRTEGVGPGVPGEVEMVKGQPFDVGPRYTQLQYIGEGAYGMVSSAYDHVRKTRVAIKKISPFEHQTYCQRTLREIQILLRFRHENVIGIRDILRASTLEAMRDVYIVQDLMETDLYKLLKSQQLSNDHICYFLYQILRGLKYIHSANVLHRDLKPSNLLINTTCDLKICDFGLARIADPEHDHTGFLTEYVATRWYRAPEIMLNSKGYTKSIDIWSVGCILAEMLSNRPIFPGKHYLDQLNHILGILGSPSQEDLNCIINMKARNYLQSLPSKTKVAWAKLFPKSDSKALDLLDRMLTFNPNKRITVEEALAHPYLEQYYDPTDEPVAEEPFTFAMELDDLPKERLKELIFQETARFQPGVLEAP
UniProt P28482, 2-360 limits assumed: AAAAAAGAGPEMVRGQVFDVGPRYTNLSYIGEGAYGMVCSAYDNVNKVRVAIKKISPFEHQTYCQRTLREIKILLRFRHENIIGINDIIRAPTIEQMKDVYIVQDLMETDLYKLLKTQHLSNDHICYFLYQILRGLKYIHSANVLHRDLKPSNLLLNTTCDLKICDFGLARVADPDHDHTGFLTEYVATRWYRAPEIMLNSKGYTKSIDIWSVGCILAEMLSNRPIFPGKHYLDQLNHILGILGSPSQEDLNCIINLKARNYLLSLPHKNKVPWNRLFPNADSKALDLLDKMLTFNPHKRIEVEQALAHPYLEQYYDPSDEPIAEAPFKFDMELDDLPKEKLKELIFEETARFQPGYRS

Columns and labels:
[1] = target: T1, ERK1 (Homo sapiens, UniProt P27361); assay: ERK1 enzyme activity test (ADP-Glo Kinase Assay); assay type: biochemical
T1 construct: purchased R&D 1879-KS-010
Method: (§1) The purpose of this experiment is to detect the inhibitory ability of the compounds on the ERK1 enzyme activity, and evaluate the in vitro activity of the compounds based on the IC50. The ADP-Glo™ Kinase Assay Kit is used in this experiment. Under the action of the enzyme, the substrate is phosphorylated and ADP is produced at the same time. The ADP-Glo reagent is added to remove the unreacted ATP in the reaction system, and the ADP produced by the reaction is detected with the kinase detection reagent. In the presence of the compound, the inhibition rate of the compound is calculated by measuring the signal value.
ATP was diluted to 300 μM with the buffer. The compound was dissolved in DMSO to prepare a stock solution with an initial concentration of 20 mM, and then Bravo (SGC120TH34702, Agilent Technologies) was used to dilute the stock solution to desired concentrations. […] The 384-well plate was taken out and placed in a microplate reader (BMG labtech, PHERAstar FS), and the chemiluminescence was measured by the microplate reader. […]

[2] = target: T2, ERK2 (Homo sapiens, UniProt P28482); assay: ERK2 enzyme activity test (ADP-Glo Kinase Assay); assay type: biochemical
T2 construct: purchased R&D 1879-KS-010
Method: as §1, with “ERK2” for “ERK1”, “by” for “with”
ATP was diluted to 500 μM with the buffer. The compound was dissolved in DMSO to prepare a stock solution with an initial concentration of 20 mM, and then Bravo (SGC120TH34702, Agilent Technologies) was used to dilute the stock solution to desired concentrations. Finally, a 3 μL of a mixed solution of enzyme and substrate, and 1 μL of different concentrations of the compound (the initial concentration is 50 μM, 4-fold dilution) were added to each well of the 384-well plate, and the plate was incubated at 30° C. for 10 minutes, and finally 1 μL of 500 μM ATP solution was added to each well, and the plate was incubated at 30° C. for 2 hours. Then 5 μL of ADP-Glo was added, and the plate was incubated at 30° C. for 40 minutes. Then 10 μL of kinase detection buffer was added, and the plate was incubated at 30° C. for 40 minutes. The 384-well plate was taken out and placed in a microplate reader (BMG labtech, PHERAstar FS), and the chemiluminescence was measured by the microplate reader.
Microsoft Excel, Graphpad Prism 5 was used to process and analyze the data.

[3] = test system: Colo205 cells; assay: In vitro proliferation inhibition test on Colo205 tumor cells (CellTiter-Glo); assay type: cell-based; conditions: Homo sapiens, COLO 205, 72 h; 3 days of culture, CTG; read-out: IC50 value of the inhibition on in vitro Colo205 tumor cell proliferation
Method: The purpose of this experiment is to test the inhibitory activity of the compounds on the proliferation of Colo205 cells (CCL-222, ATCC) in vitro. The cells were treated in vitro with different concentrations of the compounds. After 3 days of culture, the cell proliferation was tested with CTG (CellTiter-Glo® Luminescent Cell Viability Assay, Promega, Catalog No. G7573) reagent, and the in vitro activity of the compounds was evaluated according to the IC50 value.
In the following, taking the in vitro proliferation inhibition test method of Colo205 cells as an example, the method in the present disclosure for testing the in vitro proliferation inhibitory activity of the compounds of the present disclosure is described. This method is also applicable to, but not limited to, the in vitro proliferation inhibitory activity test on other tumor cells.
Colo205 cells were digested, centrifuged and then resuspended. The single cell suspension was mixed well, and the density of viable cells was adjusted to 5.0×10^4 cells/ml with cell culture medium (RPMI1640+2% FBS), and 95 μl/well was added to a 96-well cell culture plate. […]
The compound was dissolved in DMSO and prepared into a stock solution with an initial concentration of 20 mM. […] In a microplate reader (BMG labtech, PHERAstar FS), chemiluminescence was measured with the microplate reader. […]

[4] = read-out: IC50 value of the inhibition on ERK2 enzyme activity

SMILES | IC50 [1] [nM] | IC50 [2] [nM] | IC50 [3] [nM] | IC50 [2, 4] [nM]
Cc1cnc(Nc2ccnn2C)nc1-c1cc2n(c1)C(=O)N([C@H](CO)c1cccc(Cl)c1)C2 [Example 3, (S)-2-(1-(3-Chlorophenyl)-2-hydroxyethyl)-6-(5-methyl-2-((1-methyl-1H-pyrazol-5-yl)amino)pyrimidin-4-yl)-1H-pyrrolo[1,2-c]imidazol-3(2H)-one] | 3 | 2 | 26 | –
C[C@@H](CO)Nc1ncc(Cl)c(-c2cc3n(c2)C(=O)N([C@H](CO)c2cccc(Cl)c2)C3)n1 [Example 5, 6-(5-Chloro-2-(((S)-1-hydroxypropan-2-yl)amino)pyrimidin-4-yl)-2-((S)-1-(3-chlorophenyl)-2-hydroxyethyl)-1H-pyrrolo[1,2-c]imidazol-3(2H)-one] | – | – | – | 7
C[C@H](CO)Nc1ncc(Cl)c(-c2cc3n(c2)C(=O)N([C@H](CO)c2cccc(Cl)c2)C3)n1 [Example 8, 6-(5-Chloro-2-(((R)-1-hydroxypropan-2-yl)amino)pyrimidin-4-yl)-2-((S)-1-(3-chlorophenyl)-2-hydroxyethyl)-1,2-dihydro-3H-pyrrolo[1,2-c]imidazol-3-one] | – | – | – | 39
Cc1cnc(Nc2ccnn2C)nc1-c1cc2n(c1)C(=O)N([C@H](CO)c1cccc(Cl)c1)CC2 [Example 9, (S)-2-(1-(3-Chlorophenyl)-2-hydroxyethyl)-6-(5-methyl-2-((1-methyl-1H-pyrazol-5-yl)amino)pyrimidin-4-yl)-3,4-dihydropyrrolo[1,2-c]pyrimidin-1(2H)-one] | – | – | – | 6
